# Data from ChEMBL document CHEMBL3526022, “Which metabolites circulate?” (Drug Metab Dispos, 2013).
# Experiment: physchem
row,Structure (SMILES),pKa
1,Cc1nc2n(c(=O)c1CCN1CCC(c3noc4cc(F)ccc34)CC1)CCCC2 [RISPERIDONE],13
2,CC[C@H]1OC(=O)[C@H](C)[C@@H](O[C@H]2C[C@@](C)(OC)[C@@H](O)[C@H](C)O2)[C@H](C)[C@@H](O[C@@H]2O[C@H](C)C[C@H](N(C)C)[C@H]2O)[C@](C)(OC)C[C@@H](C)C(=O)[C@H](C)[C@@H](O)[C@]1(C)O [CLARITHROMYCIN],14.1
